# Tests used:
# By UniProt entry, the sequences of proteins in these tests, tags left out.
# UniProt P13866, whole entry: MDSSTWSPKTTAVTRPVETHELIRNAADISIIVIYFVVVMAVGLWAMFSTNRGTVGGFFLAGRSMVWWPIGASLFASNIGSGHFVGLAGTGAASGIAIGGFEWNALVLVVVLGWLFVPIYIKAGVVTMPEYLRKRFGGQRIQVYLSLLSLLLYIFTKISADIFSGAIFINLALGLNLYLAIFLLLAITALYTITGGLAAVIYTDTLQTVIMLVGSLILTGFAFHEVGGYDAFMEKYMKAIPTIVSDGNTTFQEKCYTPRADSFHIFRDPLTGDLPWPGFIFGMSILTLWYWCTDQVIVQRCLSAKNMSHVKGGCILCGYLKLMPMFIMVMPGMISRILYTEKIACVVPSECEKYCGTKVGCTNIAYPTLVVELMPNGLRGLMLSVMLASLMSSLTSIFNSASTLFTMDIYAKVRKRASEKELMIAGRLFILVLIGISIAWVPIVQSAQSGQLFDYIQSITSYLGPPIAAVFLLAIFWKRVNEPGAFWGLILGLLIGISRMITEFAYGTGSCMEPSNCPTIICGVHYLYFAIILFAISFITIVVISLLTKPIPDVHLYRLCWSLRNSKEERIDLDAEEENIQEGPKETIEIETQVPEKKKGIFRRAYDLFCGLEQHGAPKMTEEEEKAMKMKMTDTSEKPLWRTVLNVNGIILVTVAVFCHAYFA
# SGLT1 [1] = target: T1, SGLT1 (Homo sapiens, UniProt P13866); assay: SGLT1 inhibitor activity experiment 1; settings: read-out: SGLT1 Activity
# Method: The inhibitory activity of SGLT1 was tested with reference to the method described in document (Journal of Medicinal Chemistry 2017, 60, 710-721, Discovery of LX2761, a Sodium-Dependent Glucose Cotransporter 1 (SGLT1) Inhibitor Restricted to the Intestinal Lumen, for the Treatment of Diabetes).
# [2] = system: microorganisms in rat feces; assay: Intestinal microbial metabolic stability in rat feces suspension; settings: for Percentage of the remaining compound: rat feces suspension, 37° C.
# Method: Methods: The collected rat feces were processed, and the feces suspension was obtained for the determination of metabolic stability. The mixed reaction system consisting of the rat feces suspension and the compound of Example 5 was incubated at 37° C. for 3 h, 6 h, 12 h and 24 h. The compound of Example 4 in the incubation system was analyzed to determine the total amount of remaining compound. Wherein, “+” represents the remaining percentage being: <50%; “++” represents the remaining percentage being: 50% to 70%; “+++” represents the remaining percentage being: 70% to 90%; “++++” means the remaining percentage being: >90%.
# [3] = Oral glucose tolerance test (OGTT) after consecutive administration in mice, with observation of defecation; settings: for blood glucose level in OGTT on day 6: oral gavage once a day for 5 days
# Method: • Experimental Animals: SPF Male SD Mice; • Compound preparation: an appropriate amount of the compound of Example 4 was weighed, and uniformly suspended with an appropriate amount of 0.5% CMC-Na solution; • Preparation of glucose solution: an appropriate amount of glucose powder was weighed and dissolved with an appropriate amount of pure water; • Administration and dosage: oral gavage; blank vehicle group, high-dose group (1.5 mg/kg), low-dose group (0.1 mg/kg). Experimental Process: • (1) The mice were fed a high-sugar diet for 6 days, and then grouped (10 mice in each group) to enter the administration stage; • (2) Example compound 4 was administered at 5:00 pm every day from day 1 to day 5, once a day, and then the animals were fed a high-sugar free diet, and the defecation of the animals was observed. • (3) On day 6, oral glucose tolerance test was performed, and glucose solution (2 g/kg) was orally administered. Blood glucose was detected before (0 min) and 10, 30, and 60 min after giving glucose solution, respectively. Experimental Results: • (1) From day 1 to day 5, the observation of animal defecation after continuous administration is summarized as follows: […]
# [4] = Oral glucose tolerance test (OGTT) after continuous administration in rats for 14 days
# Method: • Experimental animals: SPF male SD rats; • Compound preparation: an appropriate amount of the compounds of Example 1, Example 3, and Example 4 were weighed, and uniformly suspended with an appropriate amount of 0.5% CMC-Na solution; • Preparation of glucose solution: an appropriate amount of glucose powder was weighed and dissolved with an appropriate amount of pure water; • Dosage and method of administration: 0.009 mg/kg, oral gavage.
# Experimental process: the animals were fed a normal diet with consecutive administration for 14 days, and the glucose tolerance test was performed on day 15, blood glucose was detected before administration (−30 min), before giving glucose (0 min), and 10, 30, 60, and 120 min after giving glucose solution, and the defecation of animals was observed.
# [5] = In vivo hypoglycemic efficacy experiment combined with sitagliptin, STZ-induced type 2 diabetes mouse model; settings: 0.02, 0.05 or 0.1 mg/kg combined with 20 mg/kg of sitagliptin
# Method: Model establishment: SPF grade Balb/C male mice were used in this experiment, and the establishment of the type 2 diabetes mouse model was induced by intraperitoneal injection of streptozotocin (STZ) supplemented by high-fat and high-sugar diet.
# Administration: normal group, model group, low-dose combined administration group (0.02 mg/kg of the compound of Example 4+20 mg/kg of sitagliptin), medium-dose combined administration group (0.05 mg/kg of the compound of Example 4+20 mg/kg of sitagliptin), high-dose combined administration group (0.1 mg/kg of the compound of Example 4+20 mg/kg of sitagliptin), sitagliptin group (20 mg/kg). The normal group and the model group were given the solvent by gavage.
# SGLT1 [6] = target: T1, SGLT1; assay: hSGLT1 inhibitor activity experiment 2: 2-NBDG uptake by HEK293 cells stably expressing human SGLT1; settings: read-out: SGLT1 Inhibitory Activity
# Method: Inhibitory activity testing was performed with reference to a similar method described in document [Acta Pharmaceutica Sinica 2017, 52 (6): 897-903; Nature Protocols (2007), 2(3), 753-762; Journal of Biochemical and Biophysical Methods (2005), 64(3), 207-215; Diabetes Technology & Therapeutics (2011), 13(7), 743-775].
# In this experiment, the in vitro activity assay was evaluated using the uptake of 2-NBDG (2-Deoxy-2-[(7-nitro-2,1,3-benzoxadiazol-4-yl)amino]-D-glucose, CAS NO: 186689-07-6) by human embryonic kidney epithelial cells (HEK293, stably expressing human SGLT1), and the SGLT1 inhibitory activity of the target compound was determined by measuring its half-maximal inhibitory concentration (IC50).
# HEK293 cells that can stably express human SGLT1 gene were inoculated into a 96-well clear-bottom black plate containing DMEM medium. The cells were incubated at 37° C., 5% CO2 in a cell incubator. […] The cells were lysed by adding NaOH, and the content of 2-NBDG in the cells was detected by a fluorescence microplate reader. The protein concentration of the lysate was measured by BCA method, the uptake of 2-NBDG was quantified by fluorescence intensity/protein content, and the obtained data were analyzed using GraphPad Prism to determine the median inhibitory concentration (IC50) of the compound to be tested. […]
smiles,measurement,setting,value
C#CCN(C)CCNC(=O)C(C)(C)NC(=O)CCCc1ccc(Cc2cc([C@@H]3O[C@H](SC)[C@@H](O)[C@H](O)[C@H]3O)ccc2C)cc1,IC50,SGLT1 [1],< 50 nM
same,remaining compound after incubation with microorganisms in rat feces,[2]; about 24 hours,> 70%
same,Percentage of the remaining compound,[2]; incubation time 3 h,++++ (the remaining percentage being: >90%)
same,Percentage of the remaining compound,[2]; incubation time 6 h,++++ (the remaining percentage being: >90%)
same,Percentage of the remaining compound,[2]; incubation time 12 h,+++ (the remaining percentage being: 70% to 90%)
same,Percentage of the remaining compound,[2]; incubation time 24 h,+++ (the remaining percentage being: 70% to 90%)
same,Statistics of loose stools in animals,"[3]; high-dose group (1.5 mg/kg), Day 1, animals with loose stool/animals in group",3/10
same,Statistics of loose stools in animals,"[3]; high-dose group (1.5 mg/kg), Day 2",1/10
same,Statistics of loose stools in animals,"[3]; high-dose group (1.5 mg/kg), Day 3",0/10
same,Statistics of loose stools in animals,"[3]; high-dose group (1.5 mg/kg), Day 4",0/10
same,Statistics of loose stools in animals,"[3]; high-dose group (1.5 mg/kg), Day 5",0/10
same,blood glucose level in OGTT on day 6,[3]; high-dose group (1.5 mg/kg),significantly reduce the blood glucose level of mice
same,Statistics of loose stools in animals,"[3]; low-dose group (0.1 mg/kg), Day 1",0/10
same,Statistics of loose stools in animals,"[3]; low-dose group (0.1 mg/kg), Day 2",0/10
same,Statistics of loose stools in animals,"[3]; low-dose group (0.1 mg/kg), Day 3",0/10
same,Statistics of loose stools in animals,"[3]; low-dose group (0.1 mg/kg), Day 4",0/10
same,Statistics of loose stools in animals,"[3]; low-dose group (0.1 mg/kg), Day 5",0/10
same,blood glucose level in OGTT on day 6,[3]; low-dose group (0.1 mg/kg),significantly reduce the blood glucose level of mice
same,blood sugar level in OGTT,"[4]; 0.009 mg/kg oral gavage for 14 days, OGTT on day 15",significantly reduce the blood sugar level of rats
same,loose stools,"[4]; 0.009 mg/kg oral gavage, within 48 hours before and after the experiment",no loose stools were observed
same,blood glucose level of diabetic model animals,[5],significantly reduce the blood glucose level of diabetic model animals
same,IC50,SGLT1 [6],0.35 nM
